Source: patent US9988343B2, “Inhibitors of histone deacetylase” (Dana-Farber Cancer Institute, Inc., priority 2013, dated 2018)

By UniProt entry, the sequences of proteins in these tests, tags left out.
UniProt Q13547, whole entry: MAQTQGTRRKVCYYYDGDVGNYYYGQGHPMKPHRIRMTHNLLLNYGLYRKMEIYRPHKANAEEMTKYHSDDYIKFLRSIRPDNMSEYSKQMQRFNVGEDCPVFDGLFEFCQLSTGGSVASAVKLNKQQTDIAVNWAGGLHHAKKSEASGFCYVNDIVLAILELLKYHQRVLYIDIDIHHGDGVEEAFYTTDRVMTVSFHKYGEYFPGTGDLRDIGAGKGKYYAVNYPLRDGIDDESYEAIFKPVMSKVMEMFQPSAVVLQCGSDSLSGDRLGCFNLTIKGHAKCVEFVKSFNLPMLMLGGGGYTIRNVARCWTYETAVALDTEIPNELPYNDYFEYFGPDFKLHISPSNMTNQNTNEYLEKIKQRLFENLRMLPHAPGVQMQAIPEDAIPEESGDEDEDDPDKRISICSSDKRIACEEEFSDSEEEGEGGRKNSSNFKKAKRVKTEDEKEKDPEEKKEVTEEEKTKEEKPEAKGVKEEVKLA

Target: HDAC1 (Homo sapiens, UniProt Q13547)
Assay: HDAC1 inhibitory activity (IC50)
Format: biochemical
Conditions: Table 2

IC50: 1520 nM
SMILES: Nc1ccccc1NC(=O)c1ccccn1 [Compound 3]
